# Results: US10086000B2, “Tricyclic compounds as inhibitors of mutant IDH enzymes” (Merck Sharp & Dohme Corp., priority 2014, dated 2018)
# Protein sequences, listed by entry. Tags and fused reporters are not part of them.
# UniProt O75874, whole entry R132H: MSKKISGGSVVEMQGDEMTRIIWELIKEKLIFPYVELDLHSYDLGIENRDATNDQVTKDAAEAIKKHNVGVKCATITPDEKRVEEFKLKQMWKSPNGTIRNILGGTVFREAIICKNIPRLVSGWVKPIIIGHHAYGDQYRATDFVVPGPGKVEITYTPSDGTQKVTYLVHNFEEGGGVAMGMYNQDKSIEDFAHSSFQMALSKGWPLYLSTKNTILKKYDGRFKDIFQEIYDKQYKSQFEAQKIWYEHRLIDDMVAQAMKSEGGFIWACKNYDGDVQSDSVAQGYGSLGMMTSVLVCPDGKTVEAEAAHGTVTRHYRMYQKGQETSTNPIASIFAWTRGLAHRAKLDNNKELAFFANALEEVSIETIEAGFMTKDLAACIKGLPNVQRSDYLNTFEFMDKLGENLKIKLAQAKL
# Biological target: R132H mutant IDH1 enzyme (Homo sapiens (Human), UniProt O75874, R132H)
# Assay: R132H IDH1 Enzymatic Assay
# Type: biochemical
# Conditions: R132H mutant IDH1 enzyme 1.5 nM final; luminescence (Kinase-GLO) readout
row,Compound,pIC50
1,"O=C([C@@H]1[C@@H]2C[C@H]1CN(CC(F)(F)F)C2)N1Cc2cccnc2Nc2ccc(N3CCOCC3)cc21 [Example 131, Cis[8-(morpholin-4-yl)-5,11-dihydro-6H-pyrido[2,3-b][1,5]benzodiazepin-6-yl][3-(2,2,2-trifluoroethyl)-3-azabicyclo[3.1.1]hept-6-yl]methanone]",6.94
2,"O=C(C1CCc2ccccc2C1)N1Cc2cccnc2Nc2ccc(N3CCOCC3)cc21 (stereo not drawn) [Example 95, 8-Morpholin-4-yl-6-(1,2,3,4-tetrahydronaphthalen-2-ylcarbonyl)-6,11-dihydro-5H-pyrido[2,3-b][1,5]benzodiazepine]",7.04
3,"O=C([C@H]1CC[C@@H]2OCCC[C@@H]2C1)N1Cc2cccnc2Nc2ccc(N3CCOCC3)cc21 (single isomer, unassigned) [Example 45]",6.91
4,"O=C([C@@H]1CC[C@@H]2OCCC[C@@H]2C1)N1Cc2cccnc2Nc2ccc(N3CCOCC3)cc21 (racemic) [Example 39, 8-morpholin-4-yl-6-[(4aR,6R,8aS)-octahydro-2H-chromen-6-ylcarbonyl]-6,11-dihydro-5H-pyrido[2,3-b][1,5]benzodiazepine]",6.20
5,"O=C(C1CC2CCC(C1)C2(F)F)N1Cc2cccnc2Nc2ccccc21 (stereo not drawn) [Example 30, 6-[(8,8-difluorobicyclo[3.2.1]oct-3-yl)carbonyl]-6,11-dihydro-5H-pyrido[2,3-b][1,5]benzodiazepine]",5.75
6,"O=C([C@@H]1CC[C@@H]2OCCC[C@@H]2C1)N1Cc2cccnc2Nc2ccc(N3CCOCC3)cc21 [Example 51, 8-morpholin-4-yl-6-[(4aR,6R,8aS)-octahydro-2H-chromen-6-ylcarbonyl]-6,11-dihydro-5H-pyrido[2,3-b][1,5]benzodiazepine]",6.18
7,"O=C([C@H]1CC[C@H]2OCCC[C@@H]2C1)N1Cc2cccnc2Nc2ccc(N3CCOCC3)cc21 [Example 50, 8-morpholin-4-yl-6-[(4aR,6S,8aR)-octahydro-2H-chromen-6-ylcarbonyl]-6,11-dihydro-5H-pyrido[2,3-b][1,5]benzodiazepine]",5.61
8,"O=C(C1CCc2ccccc21)N1Cc2cccnc2Nc2ccccc21 (stereo not drawn) [Example 12, 6-(2,3-dihydro-1H-inden-1-ylcarbonyl)-6,11-dihydro-5H-pyrido[2,3-b][1,5]benzodiazepine]",5.85
9,"O=C([C@@H]1CC[C@@H]2OCC[C@@H]2C1)N1Cc2cccnc2Nc2ccc(N3CCOCC3)cc21 [Example 36, 8-morpholin-4-yl-6-[(3aS,5R,7aS)-octahydro-1-benzofuran-5-ylcarbonyl]-6,11-dihydro-5H-pyrido[2,3-b][1,5]benzodiazepine]",5.64
10,"O=C([C@H]1CC[C@@H]2CCC[C@@H]21)N1Cc2cccnc2Nc2ccc(N3CCOCC3)cc21 [Example 74, 8-morpholin-4-yl-6-[(1S,3aS,6aS)-octahydropentalen-1-ylcarbonyl]-6,11-dihydro-5H-pyrido[2,3-b][1,5]benzodiazepine]",7.10
11,"O=C([C@H]1CC[C@H]2OCCC[C@H]2C1)N1Cc2cccnc2Nc2ccc(N3CCOCC3)cc21 [Example 52, 8-morpholin-4-yl-6-[(4aS,6S,8aR)-octahydro-2H-chromen-6-ylcarbonyl]-6,11-dihydro-5H-pyrido[2,3-b][1,5]benzodiazepine]",6.59
12,"O=C(C1C[C@H]2COC[C@@H](C1)N2CC(F)(F)F)N1Cc2cccnc2Nc2ccc(N3C[C@H]4CCC3CO4)cc21 (single isomer, unassigned) [Example 130]",8.30
13,"O=C(N1CC(F)(F)C1)C12CCC(C(=O)N3Cc4cccnc4Nc4ccccc43)(CC1)CC2 [Example 91, 6-({4-[(3,3-difluoroazetidin-1-yl)carbonyl]bicyclo[2.2.2]oct-1-yl}carbonyl)-6,11-dihydro-5H-pyrido[2,3-b][1,5]benzodiazepine]",5.24
14,"O=C(C1CC[C@H]2OCC[C@H]2C1)N1Cc2cccnc2Nc2ccc(N3CCOCC3)cc21 (stereo in doubt) [Example 35, 8-morpholin-4-yl-6-[(3aR,5S,7aR)-octahydro-1-benzofuran-5-ylcarbonyl]-6,11-dihydro-5H-pyrido[2,3-b][1,5]benzodiazepine]",5.02
15,"O=C(N1Cc2cccnc2Nc2ccccc21)[C@]12C[C@H]3C[C@H](C[C@H](C3)C1)C2 [Example 25, 6-[(3s,5s,7s)-tricyclo[3.3.1.1~3,7~]dec-1-ylcarbonyl]-6,11-dihydro-5H-pyrido[2,3-b][1,5]benzodiazepine]",6.06
16,"O=C([C@H]1CC2CCC1C2)N1Cc2cccnc2Nc2ccccc21 (stereo partly drawn) [Example 16, 6-[(2S)-bicyclo[2.2.1]hept-2-ylcarbonyl]-6,11-dihydro-5H-pyrido[2,3-b][1,5]benzodiazepine]",5.05
17,"O=C([C@H]1COc2ccccc2O1)N1Cc2cccnc2Nc2ccc(N3C[C@@H]4C[C@H]3CO4)cc21 [Example 79, 6-[(2R)-2,3-dihydro-1,4-benzodioxin-2-ylcarbonyl]-8-[(1S,4S)-2-oxa-5-azabicyclo[2.2.1]hept-5-yl]-6,11-dihydro-5H-pyrido[2,3-b][1,5]benzodiazepine]",7.19
18,"C[C@@H]1C[C@@H]2C[C@H](C(=O)N3Cc4cccnc4Nc4ccc(N5CCOCC5)cc43)CC[C@@H]2O1 [Example 55, 6-{[(2R,3aS,5R,7aS)-2-methyloctahydro-1-benzofuran-5-yl]carbonyl}-8-morpholin-4-yl-6,11-dihydro-5H-pyrido[2,3-b][1,5]benzodiazepine]",5.97
19,"O=C(C1COC2CCCCC2O1)N1Cc2cccnc2Nc2ccc(N3CC4CCC(C3)O4)cc21 (stereo not drawn) [Example 82, 6-(octahydro-1,4-benzodioxin-2-ylcarbonyl)-8-(8-oxa-3-azabicyclo[3.2.1]oct-3-yl)-6,11-dihydro-5H-pyrido[2,3-b][1,5]benzodiazepine]",7.70
20,"CC1(O)CC2(CC(C(=O)N3Cc4cccnc4Nc4ccc(N5CCOCC5)cc43)C2)C1 (stereo not drawn) [Example 123, 2-Methyl-6-[(8-morpholin-4-yl-5,11-dihydro-6H-pyrido[2,3-b][1,5]benzodiazepin-6-yl)carbonyl]spiro[3.3]heptan-2-ol]",5.22
21,"O=C(C1CCc2cccnc2CC1)N1Cc2cccnc2Nc2ccccc21 (single isomer, unassigned) [Example 115, 6-(6,7,8,9-Tetrahydro-5H-cyclohepta[b]pyridin-7-ylcarbonyl)-6,11-dihydro-5H-pyrido[2,3-b][1,5]benzodiazepine]",6.37

# The remaining compounds from weak to strong by pIC50, led by results:
row,pIC50,Compound
1,7.74,"O=C([C@H]1COc2cc(Cl)ccc2O1)N1Cc2cccnc2Nc2ccc(N3CCOCC3)cc21 [Example 81, 6-{[(2R)-6-chloro-2,3-dihydro-1,4-benzodioxin-2-yl]carbonyl}-8-morpholin-4-yl-6,11-dihydro-5H-pyrido[2,3-b][1,5]benzodiazepine]"
2,7.92,"O=C(C1CCc2ccccc2CC1)N1Cc2cccnc2Nc2cccc(O)c21 [Example 66, 6-(6,7,8,9-tetrahydro-5H-benzo[7]annulen-7-ylcarbonyl)-6,11-dihydro-5H-pyrido[2,3-b][1,5]benzodiazepin-7-ol]"
3,8.05,"O=C(C1CCc2ccccc2CC1)N1Cc2cccnc2Nc2ccccc21 [Example 62, 6-(6,7,8,9-tetrahydro-5H-benzo[7]annulen-7-ylcarbonyl)-6,11-dihydro-5H-pyrido[2,3-b][1,5]benzodiazepine]"
4,8.22,"COc1ccc(-c2ccc3c(c2)N(C(=O)C2CCc4ccccc4CC2)Cc2cccnc2N3)c(C)n1 [Example 108, 8-(6-methoxy-2-methylpyridin-3-yl)-6-(6,7,8,9-tetrahydro-5H-benzo[7]annulen-7-ylcarbonyl)-6,11-dihydro-5H-pyrido[2,3-b][1,5]benzodiazepine]"
5,8.22,"Cc1nc(C)c(-c2ccc3c(c2)N(C(=O)C2CCc4ccccc4CC2)Cc2cccnc2N3)s1 [Example 102, 8-(2,4-dimethyl-1,3-thiazol-5-yl)-6-(6,7,8,9-tetrahydro-5H-benzo[7]annulen-7-ylcarbonyl)-6,11-dihydro-5H-pyrido[2,3-b][1,5]benzodiazepine]"
6,8.30,"CN(C)c1cc(-c2ccc3c(c2)N(C(=O)C2CCc4ccccc4CC2)Cc2cccnc2N3)ccn1 [Example 107, N,N-dimethyl-4-[6-(6,7,8,9-tetrahydro-5H-benzo[7]annulen-7-ylcarbonyl)-6,11-dihydro-5H-pyrido[2,3-b][1,5]benzodiazepin-8-yl]pyridin-2-amine]"
7,8.30,"CC(C)(O)c1ccc2c(c1)N(C(=O)C1CCc3ccccc3CC1)Cc1cccnc1N2 [Example 116, 2-[6-(6,7,8,9-Tetrahydro-5H-benzo[7]annulen-7-ylcarbonyl)-6,11-dihydro-5H-pyrido[2,3-b][1,5]benzodiazepin-8-yl]propan-2-ol]"
8,8.40,"O=C(C1CCc2ccccc2CC1)N1Cc2cccnc2Nc2ccc(Br)cc21 [Example 64, 8-bromo-6-(6,7,8,9-tetrahydro-5H-benzo[7]annulen-7-ylcarbonyl)-6,11-dihydro-5H-pyrido[2,3-b][1,5]benzodiazepine]"
9,8.52,"CC(C)[C@@H]1COC(=O)N1c1ccc2c(c1)N(C(=O)C1CCc3ccccc3CC1)Cc1cccnc1N2 [Example 126, (4R)-4-(1-Methylethyl)-3-[6-(6,7,8,9-tetrahydro-5H-benzo[7]annulen-7-ylcarbonyl)-6,11-dihydro-5H-pyrido[2,3-b][1,5]benzodiazepin-8-yl]-1,3-oxazolidin-2-one]"
10,8.52,"CC1NC(=O)OC1c1ccc2c(c1)N(C(=O)C1CCc3ccccc3CC1)Cc1cccnc1N2 (stereo not drawn) [Example 125, 4-Methyl-5-[6-(6,7,8,9-tetrahydro-5H-benzo[7]annulen-7-ylcarbonyl)-6,11-dihydro-5H-pyrido[2,3-b][1,5]benzodiazepin-8-yl]-1,3-oxazolidin-2-one]"
11,8.52,"O=C(c1ccc2c(c1)N(C(=O)C1CCc3ccccc3CC1)Cc1cccnc1N2)N1Cc2ccccc2C1 [Example 65, 8-(1,3-dihydro-2H-isoindol-2-ylcarbonyl)-6-(6,7,8,9-tetrahydro-5H-benzo[7]annulen-7-ylcarbonyl)-6,11-dihydro-5H-pyrido[2,3-b][1,5]benzodiazepine]"
12,8.52,"CC(C)(C#N)c1ccc2c(c1)N(C(=O)C1Cc3ccccc3C1)Cc1cccnc1N2 [Example 13, 2-[6-(2,3-dihydro-1H-inden-2-ylcarbonyl)-6,11-dihydro-5H-pyrido[2,3-b][1,5]benzodiazepin-8-yl]-2-methylpropanenitrile]"

# pIC50: −log10 of the molar value.
